The results in this text go back to patent US20090088403A1, “A3 ADENOSINE RECEPTORS AS TARGETS FOR THE MODULATION OF CENTRAL SEROTONERGIC SIGNALING” (priority 2007, published 2009).

For the experiment, the system named is SERT. The experiment can be described thus: [3H]5-HT transport assay in mouse brain synaptosomes. Type of experiment: cell-based. Particulars: midbrain synaptosomes; inhibitor 10 min before IB-MECA; MRS1191 1 μM, DT-2 1.0 μM, H8 0.1 μM, SB203580 1.0 μM.

Structures are written as SMILES.

Consider `C[S+]([O-])c1ccc(-c2nc(-c3ccncc3)c(-c3ccc(F)cc3)[nH]2)cc1` (stereo not shown) [SB203580], for which the “effect on IB-MECA (10 nM) stimulated 5-HT uptake” value was “blocked the effects of IB-MECA in stimulation of SERT activity”.
